# Experimental data published in patent US6906074B2, “2-phenylpiperazine derivatives” (Nippon Zoki Pharmaceutical Co., Ltd., priority 2002, dated 2005).
# The chains behind the UniProt entries cited, without tags or fusion partners.
# UniProt P25103, whole entry, looked up: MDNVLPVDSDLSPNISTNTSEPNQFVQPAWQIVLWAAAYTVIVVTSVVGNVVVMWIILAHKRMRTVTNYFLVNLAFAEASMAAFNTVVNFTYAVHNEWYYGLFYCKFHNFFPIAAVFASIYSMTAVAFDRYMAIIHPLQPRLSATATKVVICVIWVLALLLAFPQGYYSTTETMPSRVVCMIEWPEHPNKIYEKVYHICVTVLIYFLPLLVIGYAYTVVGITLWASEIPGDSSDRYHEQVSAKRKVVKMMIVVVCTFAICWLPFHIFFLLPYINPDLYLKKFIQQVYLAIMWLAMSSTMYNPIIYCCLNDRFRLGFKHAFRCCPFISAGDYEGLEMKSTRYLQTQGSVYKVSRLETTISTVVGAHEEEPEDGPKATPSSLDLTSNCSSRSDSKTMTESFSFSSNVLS
# Molecular target: human NK1 receptors (Homo sapiens, UniProt P25103)
# Experiment: Binding assay for human NK1 receptors ((3H)-Sar9-SP, human NK1-CHO cells)
# Settings: (3H)-Sar9-SP 0.3 nmol/L
compound,measurement,value
O=C1CN(Cc2nn(P(=O)(O)O)c(=O)[nH]2)[C@@H](c2ccccc2)[C@@H](COCc2cc(C(F)(F)F)cc(C(F)(F)F)c2)N1,IC50,30 nM
